Changes are numbered by the printed parent chain. Names and notes keep the numbering of the source.
B1: PsaPOX (Pleurotus sapidus) (protein)
chain: MTTPAPPLDLNNIQGDILGGLPKKTETYFFFDVTNVDRFKANMTQFIPHVKTSAGIVKDREAIKEHKRQKRPGLVPMAAVNVSFSHLGLQKLGITDDLSDSSFTTGQRKDAEVLGDPGTKNGDTFTPAWEAPFLKDIHGVIFVAGDCHASVHKKLDEIKHIFGVGTSHASISEVTHVRGDVRPGQVSAHEHFGFLDGISNPAVDQFDQNPFPGQDSIRPGFILAKENGDSRAAARPDWAKDGSFLTFRYLFQMVPEFDDFLESNPIVLPGLSRKEGSELLGARIVGRWKSGAPIEITPLKDDPKLGADAQRNNNFDFGDSLVRGDQTKCPFAAHIRKTYPRNDLEGPPLNADIDNRRIIRRGIQFGPEVTSQEHHDKKTHHGRGLLFVCYSSSIDDGFHFIQQSWANAPNFPVNAVTSAGPIPPLDGVIPGFDAIIGQKVGGGIRQISGTNPNDPTTNITLPDQDFVIPRGGEYFFSPSISALKTKFAAGVASSAPQAQAPIST
B2: PsaPOX (Pleurotus sapidus; S371H) (protein)
chain: B1 chain with S371H
B3: PsaPOX (Pleurotus sapidus; A307E/A309S/G184D/G306A/I429V/L305Q/N314D/N350K/Q185P/S371I/V388A) (protein)
chain: MTTPAPPLDLNNIQGDILGGLPKKTETYFFFDVTNVDRFKANMTQFIPHVKTSAGIVKDREAIKEHKRQKRPGLVPMAAVNVSFSHLGLQKLGITDDLSDSSFTTGQRKDAEVLGDPGTKNGDTFTPAWEAPFLKDIHGVIFVAGDCHASVHKKLDEIKHIFGVGTSHASISEVTHVRGDVRPDPVSAHEHFGFLDGISNPAVDQFDQNPFPGQDSIRPGFILAKENGDSRAAARPDWAKDGSFLTFRYLFQMVPEFDDFLESNPIVLPGLSRKEGSELLGARIVGRWKSGAPIEITPLKDDPKQAEDSQRNNDFDFGDSLVRGDQTKCPFAAHIRKTYPRNDLEGPPLKADIDNRRIIRRGIQFGPEVTIQEHHDKKTHHGRGLLFACYSSSIDDGFHFIQQSWANAPNFPVNAVTSAGPIPPLDGVVPGFDAIIGQKVGGGIRQISGTNPNDPTTNITLPDQDFVIPRGGEYFFSPSISALKTKFAAGVASSAPQAQAPIST

Substrate: CCn1c(=NN=c2sc3cc(S(=O)(=O)O)ccc3n2CC)sc2cc(S(=O)(=O)O)ccc21
Assay: purified protein
Conditions: 100 µM H2O2, 100 mM sodium acetate, pH 3.5, 40 °C

Protein	Km [µM]	kcat [s⁻¹]	kcat/Km [M⁻¹ s⁻¹]
B1	33.0 ± 2.5	6.8	206000
B2	25.8 ± 1.6	10.5	408000
B3	31.9 ± 2.3	3.8	119000
